Assay results taken from PMC5341070, “Small molecule inhibitors block Gas6-inducible TAM activation and tumorigenicity” (Scientific Reports, 2017).

Amino acid sequences for entries named in this document (tags omitted).
UniProt P00519, whole entry: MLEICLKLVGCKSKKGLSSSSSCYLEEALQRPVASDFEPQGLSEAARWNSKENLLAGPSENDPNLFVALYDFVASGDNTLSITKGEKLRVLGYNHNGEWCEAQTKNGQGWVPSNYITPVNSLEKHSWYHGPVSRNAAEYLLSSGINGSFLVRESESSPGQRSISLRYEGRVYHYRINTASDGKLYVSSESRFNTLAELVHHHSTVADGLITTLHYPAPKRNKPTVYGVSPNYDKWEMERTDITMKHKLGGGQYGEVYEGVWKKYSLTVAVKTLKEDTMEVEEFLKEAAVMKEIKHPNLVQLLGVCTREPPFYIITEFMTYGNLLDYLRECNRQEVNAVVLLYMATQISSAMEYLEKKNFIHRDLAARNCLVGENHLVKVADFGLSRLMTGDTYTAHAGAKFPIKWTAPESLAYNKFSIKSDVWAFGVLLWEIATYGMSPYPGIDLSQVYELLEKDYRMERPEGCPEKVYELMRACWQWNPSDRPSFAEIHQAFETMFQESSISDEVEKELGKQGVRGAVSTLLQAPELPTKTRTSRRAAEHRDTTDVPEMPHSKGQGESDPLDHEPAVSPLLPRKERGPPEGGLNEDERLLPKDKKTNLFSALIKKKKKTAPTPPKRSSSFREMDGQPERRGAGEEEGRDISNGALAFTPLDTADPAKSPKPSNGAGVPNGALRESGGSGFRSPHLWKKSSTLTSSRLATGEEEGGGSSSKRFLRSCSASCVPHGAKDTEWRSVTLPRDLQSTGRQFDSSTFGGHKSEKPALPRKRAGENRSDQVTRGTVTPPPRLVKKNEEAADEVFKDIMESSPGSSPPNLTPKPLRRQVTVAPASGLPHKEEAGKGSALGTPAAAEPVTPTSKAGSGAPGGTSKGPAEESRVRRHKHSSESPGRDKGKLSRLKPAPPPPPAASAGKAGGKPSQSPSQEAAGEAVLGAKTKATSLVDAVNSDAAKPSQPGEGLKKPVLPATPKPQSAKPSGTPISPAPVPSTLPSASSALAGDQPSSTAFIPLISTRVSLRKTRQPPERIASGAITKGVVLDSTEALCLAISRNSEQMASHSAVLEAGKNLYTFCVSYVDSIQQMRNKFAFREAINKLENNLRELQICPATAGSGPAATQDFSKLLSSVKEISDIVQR

Molecular target: T1, ABL1-phosphorylated (Homo sapiens, UniProt P00519)
T1 construct: phosphorylated
Assay: biochemical
Parameters: KINOMEscan (DiscoverX) competition binding screen of 97 human kinases, percent of control at 10 uM
Conditions: read-out: R428 %Ctrl @ 10000nM; binding competition, % of control
Experimental: The KINOMEscan profiling of the inhibitors were performed as per directions by the manufacturer (DiscoverX) against a panel of human protein kinases.

SMILES: Nc1nc(Nc2ccc3c(c2)CC[C@@H](N2CCCC2)CC3)nn1-c1cc2c(nn1)-c1ccccc1CCC2 [R428]
- remaining binding at 10 µM: 0.1%
